Measurements published in PMC10191403, “The C-terminal 32-mer fragment of hemoglobin alpha is an amyloidogenic peptide with antimicrobial properties” (Cellular and Molecular Life Sciences: CMLS, 2023).

Legend:
[1] = Thioflavin T (ThT) assay of fibril formation; format: physicochemical; conditions: formation of ThT positive aggregates
HSV-2 = format: cell-based; conditions: serial dilutions of peptides added to ELVIS cells, infected 1 h later with HSV-2; lacZ enzyme activity one day post-infection; ±SD; one (inactive) to three (active) experiments in triplicates

With `CC(C)C[C@H](NC(=O)[C@H](Cc1ccccc1)NC(=O)[C@@H](N)CCCCN)C(=O)N[C@@H](C)C(=O)N[C@@H](CO)C(=O)N[C@H](C(=O)N[C@@H](CO)C(=O)N[C@H](C(=O)N[C@H](C(=O)O)C(C)C)[C@@H](C)O)C(C)C` [HBA 128-136] the “ThT signal (+/-)” value [1] was “-” and the “IC50 (antiviral activity, HSV-2)” value (HSV-2) was > 130 µg/mL.

With `CC(C)C[C@H](NC(=O)[C@@H](NC(=O)[C@@H](NC(=O)[C@H](CO)NC(=O)[C@@H](NC(=O)[C@H](CO)NC(=O)[C@H](C)NC(=O)[C@H](CC(C)C)NC(=O)[C@@H](N)Cc1ccccc1)C(C)C)[C@@H](C)O)C(C)C)C(=O)O` [HBA 129-137] the “ThT signal (+/-)” value [1] was “-” and the “IC50 (antiviral activity, HSV-2)” value (HSV-2) was > 130 µg/mL.
